Assay results reported in US20190134153A1, “IMMUNOMODULATORY EFFECT OF INHALED KINASE INHIBITOR PEPTIDES IN LUNG” (MOERAE MATRIX, INC., priority 2017, published 2019).

Legend:
Assay in all cases: Kinase Profiling Assay
Type in all cases: biochemical
Conditions in all cases: 100 μM
[1] = molecular target: ACK1(h) (Homo sapiens, UniProt Q07912)
[2] = molecular target: BTK(h) (Homo sapiens, UniProt Q06187)
[3] = molecular target: CK1γ1(h) (Homo sapiens, UniProt Q9HCP0)
[4] = molecular target: CK2α2(h) (Homo sapiens, UniProt P19784)
[5] = molecular target: CLK2(h) (Homo sapiens, UniProt P49760)
[6] = molecular target: cKit(V560G)(h) (Homo sapiens, UniProt P10721, V560G)
[7] = molecular target: c-RAF(h) (Homo sapiens, UniProt P04049)
[8] = molecular target: FAK(h) (Homo sapiens, UniProt Q05397)
[9] = molecular target: FGFR2(N549H)(h) (Homo sapiens, UniProt P21802, N549H)
[10] = molecular target: FGFR3(h) (Homo sapiens, UniProt P22607)
[11] = molecular target: GRK5(h) (Homo sapiens, UniProt P34947)
[12] = molecular target: IGF-1R(h) (Homo sapiens, UniProt P08069)
[13] = molecular target: T1, JAK3(h) (Homo sapiens, UniProt P52333)
T1 sequence (P52333 1-1124): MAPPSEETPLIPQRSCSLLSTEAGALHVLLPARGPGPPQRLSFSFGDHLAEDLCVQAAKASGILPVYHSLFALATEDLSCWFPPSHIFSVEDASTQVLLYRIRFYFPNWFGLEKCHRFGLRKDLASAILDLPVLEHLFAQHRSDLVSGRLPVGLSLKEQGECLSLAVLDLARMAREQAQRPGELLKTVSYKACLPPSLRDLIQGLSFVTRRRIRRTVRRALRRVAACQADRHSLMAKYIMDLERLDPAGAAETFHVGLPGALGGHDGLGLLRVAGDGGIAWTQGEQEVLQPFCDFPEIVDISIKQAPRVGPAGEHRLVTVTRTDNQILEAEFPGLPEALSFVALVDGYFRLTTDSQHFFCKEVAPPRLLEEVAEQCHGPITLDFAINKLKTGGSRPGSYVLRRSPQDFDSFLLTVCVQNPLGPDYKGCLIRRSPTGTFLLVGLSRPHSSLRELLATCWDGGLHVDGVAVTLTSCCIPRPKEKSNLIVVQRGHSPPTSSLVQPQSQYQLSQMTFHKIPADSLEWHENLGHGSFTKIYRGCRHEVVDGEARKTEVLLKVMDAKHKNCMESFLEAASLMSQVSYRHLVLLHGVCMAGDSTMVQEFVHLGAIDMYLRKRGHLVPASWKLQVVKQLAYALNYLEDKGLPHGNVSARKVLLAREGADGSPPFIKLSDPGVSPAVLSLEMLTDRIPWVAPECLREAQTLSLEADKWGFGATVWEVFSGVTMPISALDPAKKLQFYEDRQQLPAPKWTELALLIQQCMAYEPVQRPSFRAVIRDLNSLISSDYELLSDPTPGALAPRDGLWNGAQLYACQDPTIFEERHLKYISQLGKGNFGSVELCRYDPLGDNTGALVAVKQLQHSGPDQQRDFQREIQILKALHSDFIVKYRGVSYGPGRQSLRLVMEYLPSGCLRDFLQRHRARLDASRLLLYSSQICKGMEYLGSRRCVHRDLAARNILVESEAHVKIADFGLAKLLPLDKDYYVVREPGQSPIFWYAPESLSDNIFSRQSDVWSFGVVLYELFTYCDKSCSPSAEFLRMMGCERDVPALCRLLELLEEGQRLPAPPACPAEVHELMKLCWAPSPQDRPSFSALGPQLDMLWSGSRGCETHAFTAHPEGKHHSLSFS

[14] = molecular target: MAPK1(h) (Homo sapiens, UniProt P27361)
[15] = molecular target: Met(Y1248D)(h) (Homo sapiens, UniProt P08581, Y1230D)
[16] = molecular target: Met(Y1248H)(h) (Homo sapiens, UniProt P08581, Y1230H)
[17] = molecular target: MRCKα(h) (Homo sapiens, UniProt Q5VT25)
[18] = molecular target: PAK6(h) (Homo sapiens, UniProt Q9NQU5)
[19] = molecular target: T2, PAR-1Bα(h) (Homo sapiens, UniProt Q7KZI7)
T2 sequence (Q7KZI7 1-725 isoform Q7KZI7-4): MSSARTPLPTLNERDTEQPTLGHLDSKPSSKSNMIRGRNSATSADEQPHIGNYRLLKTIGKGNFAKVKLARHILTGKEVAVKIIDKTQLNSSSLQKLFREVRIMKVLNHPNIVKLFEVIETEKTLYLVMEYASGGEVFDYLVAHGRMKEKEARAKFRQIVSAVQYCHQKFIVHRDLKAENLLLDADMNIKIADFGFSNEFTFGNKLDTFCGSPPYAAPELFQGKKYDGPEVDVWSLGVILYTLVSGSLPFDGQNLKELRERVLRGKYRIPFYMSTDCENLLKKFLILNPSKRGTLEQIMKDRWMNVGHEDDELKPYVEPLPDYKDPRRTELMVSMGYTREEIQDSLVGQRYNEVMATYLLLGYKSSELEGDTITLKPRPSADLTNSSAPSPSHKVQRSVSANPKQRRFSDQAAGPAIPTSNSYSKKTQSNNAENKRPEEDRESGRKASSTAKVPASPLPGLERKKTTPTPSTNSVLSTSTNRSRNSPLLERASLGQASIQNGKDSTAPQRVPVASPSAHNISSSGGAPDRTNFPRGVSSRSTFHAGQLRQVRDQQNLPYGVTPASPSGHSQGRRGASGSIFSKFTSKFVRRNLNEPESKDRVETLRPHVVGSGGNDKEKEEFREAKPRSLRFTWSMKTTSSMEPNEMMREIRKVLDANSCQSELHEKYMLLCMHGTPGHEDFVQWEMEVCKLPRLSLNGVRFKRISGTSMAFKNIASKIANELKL

[20] = molecular target: PDGFRα(D842V)(h) (Homo sapiens, UniProt P16234, D842V)
[21] = molecular target: PKA(h) (Homo sapiens, UniProt P17612)
[22] = molecular target: PKCη(h) (Homo sapiens, UniProt P24723)
[23] = molecular target: Plk1(h) (Homo sapiens, UniProt P53350)
[24] = molecular target: Snk(h) (Homo sapiens, UniProt Q9NYY3)
[25] = molecular target: Tie2(R849W)(h) (Homo sapiens, UniProt Q02763, R849W)
[26] = molecular target: TLK2(h) (Homo sapiens, UniProt Q86UE8)

For FAKLAARLYRKALARQLGVAA [MMI-0300], the “% activity” value [1] was 104%, the “% activity” value [2] was 102% and the “% activity” value [3] was 111%. The “% activity” value [4] was 105%, the “% activity” value [5] was 103% and the “% activity” value [6] was 102%. For the same sequence, the “% activity” value [7] was 107%, the “% activity” value [8] was 111% and the “% activity” value [9] was 116%. The “% activity” value [10] was 102%, the “% activity” value [11] was 136% and the “% activity” value [12] was 119%. For the same sequence, the “% activity” value [13] was 121%, the “% activity” value [14] was 107% and the “% activity” value [15] was 102%. The “% activity” value [16] was 117%, the “% activity” value [17] was 104% and the “% activity” value [18] was 104%. The “% activity” value [19] was 113%, the “% activity” value [20] was 114% and the “% activity” value [21] was 119%. For the same sequence, the “% activity” value [22] was 103%, the “% activity” value [23] was 115% and the “% activity” value [24] was 114%. The “% activity” value [25] was 117% and the “% activity” value [26] was 114%.
